Earlier results, collected in paper PMC10892093 (Pharmaceutics, 2024).

Details: in vivo, cited from earlier work

SMILES: O=C1Nc2ccc(Cl)cc2C(c2ccccc2)=NC1O (centres unmarked) [oxazepam, Oxazepam]
- S-/R-oxazepam glucuronide ratio (plasma): 3.5
- S-/R-oxazepam glucuronide ratio (urine): 3.9

Read-outs that look alike come from different tables or passages of the source.
